Assay results taken from patent US20180369399A1, “POLYMER CONJUGATES HAVING REDUCED ANTIGENICITY AND METHODS OF USING THE SAME” (Duke University, priority 2015, published 2018).

Protein sequences, listed by entry. Tags and fused reporters are not part of them. Residues count along the entry.
UniProt P32301, 22-463: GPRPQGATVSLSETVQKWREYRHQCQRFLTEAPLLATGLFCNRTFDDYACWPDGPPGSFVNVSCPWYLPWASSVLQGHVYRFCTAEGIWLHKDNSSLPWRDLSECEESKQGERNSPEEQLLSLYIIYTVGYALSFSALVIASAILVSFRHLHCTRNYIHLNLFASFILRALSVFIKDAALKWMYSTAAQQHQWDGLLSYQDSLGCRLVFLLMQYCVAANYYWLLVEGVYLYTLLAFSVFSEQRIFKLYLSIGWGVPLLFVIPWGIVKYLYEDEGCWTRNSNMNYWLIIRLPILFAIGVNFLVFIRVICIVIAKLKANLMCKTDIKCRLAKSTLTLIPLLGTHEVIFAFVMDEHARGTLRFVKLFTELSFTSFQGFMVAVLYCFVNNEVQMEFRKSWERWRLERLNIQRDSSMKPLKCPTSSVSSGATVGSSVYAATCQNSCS

Molecular target: rat GLP-1R (rat) (UniProt P32301)
Assay: cell-based or functional assay

Work on “66.2 kDa EG9 exendin-C-POEGMA conjugate (from UniProt P26349 48-86) (peptide)” yielded an EC50 (nM) of intracellular cAMP release in BHK cells stably transfected with rat GLP-1R of 2.1 nM.
